The test deals with Metabotropic glutamate receptor 4 (Homo sapiens, UniProt Q14833). The experiment in a line: Positive allosteric modulation of human mGluR4 expressed in CHO cells coexpressing Gqi5 assessed as calcium mobilization. Format: functional, cell-based. In general terms: A change in cytosolic calcium serves as a functional read-out for many receptors and channels.

Chains of the proteins cited; added tags and fusions are not shown. Lines headed by an entry give the natural chain unless they say otherwise; changes in a name come on top.
UniProt Q14833: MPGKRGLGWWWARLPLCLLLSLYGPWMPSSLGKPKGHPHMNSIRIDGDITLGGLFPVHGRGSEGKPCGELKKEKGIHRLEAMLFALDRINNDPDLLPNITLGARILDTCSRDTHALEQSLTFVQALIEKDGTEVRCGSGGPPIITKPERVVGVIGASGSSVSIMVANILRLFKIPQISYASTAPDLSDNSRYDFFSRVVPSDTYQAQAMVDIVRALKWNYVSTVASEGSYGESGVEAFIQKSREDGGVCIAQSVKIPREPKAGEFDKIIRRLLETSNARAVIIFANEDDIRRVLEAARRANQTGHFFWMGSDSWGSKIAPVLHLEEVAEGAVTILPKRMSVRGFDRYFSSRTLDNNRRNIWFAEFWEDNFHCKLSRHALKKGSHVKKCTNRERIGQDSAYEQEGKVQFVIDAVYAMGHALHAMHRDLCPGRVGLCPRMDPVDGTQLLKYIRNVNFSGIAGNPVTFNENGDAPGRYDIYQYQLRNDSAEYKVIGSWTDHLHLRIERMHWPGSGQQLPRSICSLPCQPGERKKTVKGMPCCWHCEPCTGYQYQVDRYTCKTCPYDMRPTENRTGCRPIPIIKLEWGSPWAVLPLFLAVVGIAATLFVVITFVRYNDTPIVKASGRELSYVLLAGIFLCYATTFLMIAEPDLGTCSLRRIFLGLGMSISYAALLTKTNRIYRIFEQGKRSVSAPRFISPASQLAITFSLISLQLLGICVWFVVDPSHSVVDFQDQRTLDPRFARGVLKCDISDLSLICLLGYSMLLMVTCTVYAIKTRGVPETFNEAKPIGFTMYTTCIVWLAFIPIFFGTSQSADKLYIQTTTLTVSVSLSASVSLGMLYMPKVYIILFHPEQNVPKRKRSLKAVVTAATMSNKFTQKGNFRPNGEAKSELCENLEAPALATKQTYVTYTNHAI

For the compound `COc1cc(NC(=O)c2ccccn2)ccc1NC(=O)c1ccccc1Cl`, the half-maximal effective concentration (EC50) was 99.5 nM.
On to `O=C(Nc1ccc(NC(=O)c2ccccc2Cl)c(F)c1)c1ccccn1`, for which the EC50 is 556 nM.

One may read the EC50 as the concentration giving half of the maximal effect.
